Literature values, collected in patent US20110123612A1, “PHARMACEUTICAL PREPARATION CONTAINING NON-DIHYDROPYRIDINE CALCIUM CHANNEL BLOCKER AND ANGIOTENSIN-2 RECEPTOR BLOCKER” (priority 2008, published 2011).

The chains behind the UniProt entries cited, without tags or fusion partners.
UniProt P08684, whole entry: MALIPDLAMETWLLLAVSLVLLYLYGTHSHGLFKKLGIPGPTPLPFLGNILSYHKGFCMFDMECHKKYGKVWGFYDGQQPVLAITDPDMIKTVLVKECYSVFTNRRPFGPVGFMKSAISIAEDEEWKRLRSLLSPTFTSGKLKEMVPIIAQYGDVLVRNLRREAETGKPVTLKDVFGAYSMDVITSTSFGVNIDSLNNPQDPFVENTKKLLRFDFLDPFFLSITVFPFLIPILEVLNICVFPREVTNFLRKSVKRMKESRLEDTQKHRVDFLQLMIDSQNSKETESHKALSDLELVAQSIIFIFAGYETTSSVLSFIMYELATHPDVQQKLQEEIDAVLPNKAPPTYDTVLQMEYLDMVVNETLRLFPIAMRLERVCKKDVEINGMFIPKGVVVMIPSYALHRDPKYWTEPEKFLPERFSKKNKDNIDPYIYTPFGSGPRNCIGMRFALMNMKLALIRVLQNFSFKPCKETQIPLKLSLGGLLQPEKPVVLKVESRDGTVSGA

Target: cytochrome P450 3A4 (Homo sapiens, UniProt P08684)

SMILES | inhibitory effects on cytochrome P450 3A4
CNCCN1C(=O)[C@H](OC(C)=O)[C@H](c2ccc(OC)cc2)Sc2ccccc21 [N-desmethyl diltiazem] | more potent inhibitory effects on the synthesis of cytochrome P450 3A4 than diltiazem
COc1ccc([C@@H]2Sc3ccccc3N(CCN)C(=O)[C@@H]2OC(C)=O)cc1 [N,N-didesmethyl diltiazem] | more potent inhibitory effects on the synthesis of cytochrome P450 3A4 than diltiazem
